{
  "sequences": {"note": "By UniProt entry, the sequences of proteins in these tests, tags left out. Residues count along the entry.", "UniProt Q63380, 1-617": "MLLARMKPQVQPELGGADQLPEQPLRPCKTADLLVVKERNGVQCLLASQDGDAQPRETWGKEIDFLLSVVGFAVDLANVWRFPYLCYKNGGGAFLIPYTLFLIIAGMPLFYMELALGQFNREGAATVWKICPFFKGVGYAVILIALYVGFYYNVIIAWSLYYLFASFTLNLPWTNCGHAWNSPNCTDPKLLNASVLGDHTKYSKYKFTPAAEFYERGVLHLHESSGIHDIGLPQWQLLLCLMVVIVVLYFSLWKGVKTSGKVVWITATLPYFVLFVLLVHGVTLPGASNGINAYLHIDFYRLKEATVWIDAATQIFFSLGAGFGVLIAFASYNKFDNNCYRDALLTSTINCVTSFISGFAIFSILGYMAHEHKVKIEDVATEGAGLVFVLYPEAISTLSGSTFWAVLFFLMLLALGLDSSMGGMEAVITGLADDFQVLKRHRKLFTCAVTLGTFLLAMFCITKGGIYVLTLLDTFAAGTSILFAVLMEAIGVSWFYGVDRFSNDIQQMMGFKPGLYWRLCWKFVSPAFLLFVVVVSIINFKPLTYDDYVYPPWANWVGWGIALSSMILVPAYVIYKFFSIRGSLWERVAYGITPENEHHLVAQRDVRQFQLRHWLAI"},
  "source": "paper PMC2747657",
  "about": "(Bioorganic & medicinal chemistry, 2009)",
  "origin": "cited, not measured here",
  "molecular_target": "NET (Rattus norvegicus, UniProt Q63380)",
  "conditions": "read-out: NET, Ki [3H]nisoxetine; inhibition of [3H]nisoxetine binding; cited from earlier work",
  "data": [
    {"smiles": "COC(=O)[C@H]1[C@@H](OC(=O)c2ccccc2)C[C@@H]2CC[C@H]1N2C", "note": "[Cocaine, cocaine]", "values": [
      {"measurement": "Ki", "value": 1990, "unit": "nM"}
    ]}
  ]
}
